Our source for the IC50 values is patent US5192747A, “Anticoagulant peptides” (Merrell Dow Pharmaceuticals Inc., priority 1991, dated 1993).

The target in this assay is Bovine thrombin (Bos taurus, UniProt P00735). The assay can be described thus: thrombin induced fibrin clot inhibition assay. It is filed as biochemical.

Where two headings read alike, the source gives them in different places.

Take `CC[C@H](C)[C@H](NC(=O)[C@H](CCC(=O)O)NC(=O)[C@H](CCC(=O)O)NC(=O)[C@H](Cc1ccccc1)NC(=O)[C@H](CC(=O)O)NC(=O)CN)C(=O)N[C@@H](CCC(=O)O)C(=O)N[C@@H](CCC(=O)O)C(=O)N[C@@H](Cc1ccc(O)cc1)C(=O)N[C@@H](CC(C)C)C(=O)N[C@@H](CCC(N)=O)C(=O)O` [compound 2, H--Gly--Asp--Phe--Glu--Glu--Ile--Glu--Glu--Tyr--Leu--Gln--OH]: the IC50 lay within 25 to 200 µM.

In turn, `CC[C@H](C)[C@H](NC(=O)[C@@H]1CCCN1C(=O)[C@H](CCC(=O)O)NC(=O)[C@H](Cc1ccc(O)cc1)NC(=O)CCC(=O)O)C(=O)N1CCC[C@H]1C(=O)N[C@@H](CCC(=O)O)C(=O)N[C@@H](C)C(=O)N[C@@H](CC1CCCCC1)C(=O)N[C@@H](CC(N)=O)C(=O)O` [compound 6, Suc--Tyr--Glu--Pro--Ile--Pro--Glu--Ala--Cha--Asn--OH] displayed an IC50 of less than 25 µM.

Regarding `CC[C@H](C)[C@H](NC(=O)[C@@H]1CCCN1C(=O)[C@H](Cc1ccc2ccccc2c1)NC(=O)CCC(=O)O)C(=O)N1CCC[C@H]1C(=O)N[C@@H](CCC(=O)O)C(=O)N[C@@H](CCC(=O)O)C(=O)N[C@@H](C)C(=O)N[C@@H](CC1CCCCC1)C(=O)N[C@H](CCC(=O)O)C(=O)O` [compound 9, Suc--Nap--Pro--Ile--Pro--Glu--Glu--Ala--Cha--D-Glu--OH], the IC50 (IC50 = peptide concentration giving half of control turbidity (405 nm), thrombin 0.2 pmol, diluted plasma (1:10), pH 7.4, 20° C., read-out: In vitro potency) is less than 25 µM.

The compound `CC[C@H](C)[C@H](NC(=O)[C@@H]1CCCN1C(=O)[C@H](CCC(=O)O)NC(=O)[C@H](Cc1ccc(O)cc1)NC(=O)CCC(=O)O)C(=O)N1CCC[C@H]1C(=O)N[C@@H](CCC(=O)O)C(=O)N[C@@H](C)C(=O)N[C@@H](CC1CCCCC1)C(=O)N[C@H](CCC(=O)O)C(=O)O` [compound 13, Suc--Tyr--Glu--Pro--Ile--Pro--Glu--Ala--Cha--D-Glu--OH] yielded an IC50 of less than 25 µM.
